An excerpt weighted towards active compounds, which were near 1.9% of everything screened.
FGF22 binding: binders of recombinant human FGF22 by thermal shift; SYPRO orange fluorescence; percent of sucrose octasulfate shift, DMSO zero; activity (Tm shift, normalised), % at 9.99 µM; AID 651658; Q9HCT0; 1.5% of 340,000 active;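 active = mean Tm shift, scaled 0 neutral to 100 positive control, at about 1.3% or above, every replicate too, limit read from the data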
ARNT-TACC3 inh: disrupts binding between human ARNT and TACC3. Q9Y6A5. AlphaScreen His-ARNT PAS-B/GST-TACC3 binding, luminescence; TACC3 fragment carries E629A point mutation. inhibition, % at 9.99 µM. 0.66% of 390,000 active. AID 623870;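 active = mean inhibition of replicates at least 50% and at least half of replicates each reaching 50%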;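 also: 0% = complete ARNT plus TACC3 wells and 100% = ARNT alone without TACC3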
ERp5 inh: ERp5 (human) disulfide isomerase inhibition; 0.05% of 350,000 active; ERp5 insulin aggregation, absorbance 650 nm, 90 min; inhibition, % at 9.99 µM; Q15084; AID 651711;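 active = mean replicate inhibition above about 25%, with every replicate also reaching it, limit read from the data, passing the limit was not always enough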
PDI turbidity: PDI (human) enzyme inhibition; P07237; 0.052% of 350,000 active; PDI insulin aggregation turbidity, A650, 90 min; inhibition, % at 10 µM; AID 588391;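 active = mean inhibition across replicates of 30% or more, whatever share of single replicates reach that level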
Yeast UUG start: yeast start codon fidelity modulation; actives 0.13% (n = 350,000); activity score, % at 18.7 µM; S. cerevisiae UUG-firefly luciferase reporter, luminescence/redox ratio;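 active = replicate mean at a twofold rise or more, about +100% in these data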;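 note: firefly luciferase made from a UUG start codon reports start codon fidelity; reporter light over untreated wells divided by growth signal over untreated wells; some hits fall short of that in this replicate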
PglD DTNB: PglD (C. jejuni) enzyme inhibition; purified PglD enzyme, DTNB colorimetric CoA detection; inhibition, % at 12.5 µM; 0.098% of 360,000 active; in the data active = inhibition above about 16%, passing the limit was not always enough
The depositor's hits bear a star.

How did COc1ccc(CN(C)C[C@@H]2OCCCC[C@@H](C)Oc3ccc(NC(=O)Nc4ccc(F)cc4)cc3C(=O)N([C@@H](C)CO)C[C@H]2C)cc1 do in these assays?
FGF22 binding: 0; ARNT-TACC3 inh: 6; ERp5 inh: 4; Yeast UUG start: 31; PglD DTNB: 11

Results for CCOCCn1c(N2CCN(c3ccccc3)CC2)nc2c1c(=O)[nH]c(=O)n2C ?
FGF22 binding: 43*; ARNT-TACC3 inh: -2; ERp5 inh: -1; PDI turbidity: 2

How did O=C(Cn1cnc([N+](=O)[O-])n1)N/N=C/c1ccccc1O do in these assays?
ARNT-TACC3 inh: 75*; PDI turbidity: -1

How did O=C(Cn1cncn1)N/N=C/c1ccccc1O do in these assays?
FGF22 binding: 0; ARNT-TACC3 inh: 78*; ERp5 inh: 4; PDI turbidity: -2

How did Cc1ccccc1/C=N/NC(=O)Cn1cnc([N+](=O)[O-])n1 do in these assays?
ARNT-TACC3 inh: 4; PDI turbidity: -2; Yeast UUG start: -10

Results for CCN1[C@@H]2c3ccc(C4=CCCC4)c(=O)n3C[C@@H]2[C@@H](CO)[C@@H]1C(=O)N(C)C ?
FGF22 binding: 0; ARNT-TACC3 inh: 5; ERp5 inh: 0; PglD DTNB: -1

Results for CCOC(=O)c1cc(CC)sc1NC(=O)CCC(=O)O ?
ARNT-TACC3 inh: -3; PDI turbidity: -6; Yeast UUG start: -4; PglD DTNB: 0

How did CCCc1cc(C(=O)OC)c(NC(=O)CCC(=O)O)s1 do in these assays?
FGF22 binding: 43*; ARNT-TACC3 inh: -4; ERp5 inh: -2; PDI turbidity: -10

Results for O=C(Nc1ccc(F)cc1)N[C@@H]1CC[C@@H](CCNC(=O)c2ccccc2F)O[C@@H]1CO ?
ERp5 inh: 5

What do the screens show for `CC(C)(C)OC(=O)N1CCC(NC(=O)c2[nH]cnc2C(=O)Nc2ccccc2F)CC1`?
FGF22 binding: 43*; ERp5 inh: -2; PDI turbidity: -2; Yeast UUG start: 4; PglD DTNB: 2

Results for CC(=O)N/N=C(\C)CC(=O)Nc1ccc2c(c1)OCCO2 ?
FGF22 binding: 43*; ERp5 inh: 5; PDI turbidity: -26; Yeast UUG start: -9; PglD DTNB: 0

What do the screens show for `CCN(CC(=O)Nc1ccc2c(c1)OCCO2)C(=O)CC1CCCC1`?
ARNT-TACC3 inh: -8; PDI turbidity: 33*; Yeast UUG start: -21; PglD DTNB: -1

What do the screens show for `Cc1noc(C)c1NC(=O)N(C)C[C@@H]1Oc2cc(C#CCC3CCCC3)ccc2S(=O)(=O)N([C@@H](C)CO)C[C@@H]1C`?
FGF22 binding: 0; ARNT-TACC3 inh: -2; ERp5 inh: 4; PglD DTNB: -1

What do the screens show for `CN1CCN(C(=O)C[C@@H]2CC[C@@H]3[C@H](COc4ccc(NC(=O)c5cscn5)cc4C(=O)N3C)O2)CC1`?
FGF22 binding: 0; ARNT-TACC3 inh: -2; ERp5 inh: -3; PglD DTNB: 0

How did O=[N+]([O-])c1ccccc1S(=O)(=O)N1CCSCC1 do in these assays?
FGF22 binding: 0; ARNT-TACC3 inh: -1; ERp5 inh: -21; PDI turbidity: -3; Yeast UUG start: -12; PglD DTNB: 0

Next section; it opens with the two that closed the last part.
What do the screens show for `CN1CCN(C(=O)C[C@@H]2CC[C@@H]3[C@H](COc4ccc(NC(=O)c5cscn5)cc4C(=O)N3C)O2)CC1`?
FGF22 binding: 0; ARNT-TACC3 inh: -2; ERp5 inh: -3; PglD DTNB: 0

How did O=[N+]([O-])c1ccccc1S(=O)(=O)N1CCSCC1 do in these assays?
FGF22 binding: 0; ARNT-TACC3 inh: -1; ERp5 inh: -21; PDI turbidity: -3; Yeast UUG start: -12; PglD DTNB: 0

How did CCCS(=O)(=O)N1CCN(S(=O)(=O)c2ccccc2[N+](=O)[O-])CC1 do in these assays?
FGF22 binding: 43*; ERp5 inh: 1

How did CC(=O)Nc1cccc(Nc2nc(-c3ccccc3F)nc3ccccc23)c1 do in these assays?
FGF22 binding: 43*; ERp5 inh: -3; PDI turbidity: 25; Yeast UUG start: -5; PglD DTNB: 8

Results for CCS(=O)(=O)Nc1ccc2c(c1)C(=O)N(C)[C@@H]1CC[C@H](CC(=O)N3CCN(C)CC3)O[C@@H]1CO2 ?
FGF22 binding: 0; ARNT-TACC3 inh: -8; ERp5 inh: 2; PglD DTNB: 3

What do the screens show for `COc1cccc(C2=NOC(C(=O)Nc3cccnc3Cl)C2)c1` (stereo not given)?
FGF22 binding: 44*; ARNT-TACC3 inh: -5; ERp5 inh: 3; PDI turbidity: 4

What do the screens show for `COc1ccc(S(=O)(=O)NNC(=O)C2CC(c3cccnc3)=NO2)cc1` (stereo not given)?
FGF22 binding: 44*; ARNT-TACC3 inh: 6; ERp5 inh: -12; PDI turbidity: -9

From PubChem
